Among the data in patent publication US20240398779A1, “USE OF FACTOR B INHIBITORS FOR THE TREATMENT OF AGE-RELATED MACULAR DEGENERATION” (priority 2021, published 2024) are safety concerns values, retold here.

The nature of the series: Clinical phase 2 studies in PNH, IgAN, C3G. The format is in vivo, human. The conditions noted are these: 200 mg b.i.d., all tested indications (PNH, IgAN, C3G).

As to `CCO[C@H]1CCN(Cc2c(OC)cc(C)c3[nH]ccc23)[C@H](c2ccc(C(=O)O)cc2)C1` [iptacopan], the safety concerns result is on record as “without any safety concerns”.
